Test [1] concerns Helisoma trivolvis FaNaC. The following applies: cited from earlier work.
Test [2] concerns Aplysia kurodai FaNaC. The experiment in a line: cell-based. The class given is cell-based. The method, then: (§1) This generated 30 Aplysia FaNaC mutants (e.g., A319Q in Fig. 3A).
(§2) Defolliculated stage V/VI oocytes from X. laevis were commercially acquired (Ecocyte Bioscience) and stored at 18 °C in 50% (in water) Leibovitz’s L-15 medium (Gibco) supplemented with additional 0.25 mg/ml gentamicin, 1 mM L-glutamine, and 15 mM Hepes, pH 7.6. Oocytes were injected with 2 ng cRNA (WT or mutant Aplysia FaNaC) and 2 to 60 ng cRNA (WT C. gigas XM_011442205.2, O. bimaculoides XM_014930938.1, L. gigantea XM_009055314.1_160261, P. fucata pfu_aug2.0_4392.1_09318.t1, C. teleta Capca1_207658, Capca1_52833, Capca1_185559, and Capca1_212912, M. lignano Mlig049925.g2, Mlig051885.g1, and Mlig041003.g1, P. australis g6004.t1 and g5063.t1 and R. norvegicus NP_077068.1 (rat ASIC1a) and respective mutants). Two-electrode voltage clamp experiments were performed 1 to 3 days after injection. The oocyte was placed in an RC-3Z bath (Warner Instruments) and bath solution (NaCl: 96 mM, KCl: 2 mM, CaCl2: 1.8 mM, MgCl2: 1 mM, Hepes: 5 mM; pH: 7.5) was perfused continuously and rapidly switched to bath solution containing peptide ligands via the VCS-8-pinch valve control perfusion system (Warner Instruments). […] Peptides were applied at varying concentrations between 30 nM and 100 μM for concentration-response experiments. The oocytes were clamped at −40 mV for rat ASIC1a experiments and −60 mV for all others with an Oocyte Clamp OC-725C amplifier (Warner Instruments), LIH 8 + 8 digitizer (HEKA Elektronik) at 0.5 or 1 KHz sampling and 100 Hz filtering. Current recordings were analyzed in Clampfit 11.1 (Molecular Devices).
(§3) After retrieving current amplitude from pClamp, all data analyses were performed in Prism v9 (GraphPad Software). For peptide or proton concentration-response data, peak current amplitude was plotted against peptide concentrations or pH and fitted with the Hill equation for each recording. These were averaged to give the reported means ± SEM in the main text. For display in figures, a single fit to the average normalized responses (±SEM) is shown. Multiple comparisons were made with one-way ANOVA with Dunnett’s comparison to a control value (e.g., comparing with WT) or with Tukey’s test for multiple comparisons.

The chains behind the UniProt entries cited, without tags or fusion partners. Residues count along the entry.
UniProt Q4H3X6, entry or part of it: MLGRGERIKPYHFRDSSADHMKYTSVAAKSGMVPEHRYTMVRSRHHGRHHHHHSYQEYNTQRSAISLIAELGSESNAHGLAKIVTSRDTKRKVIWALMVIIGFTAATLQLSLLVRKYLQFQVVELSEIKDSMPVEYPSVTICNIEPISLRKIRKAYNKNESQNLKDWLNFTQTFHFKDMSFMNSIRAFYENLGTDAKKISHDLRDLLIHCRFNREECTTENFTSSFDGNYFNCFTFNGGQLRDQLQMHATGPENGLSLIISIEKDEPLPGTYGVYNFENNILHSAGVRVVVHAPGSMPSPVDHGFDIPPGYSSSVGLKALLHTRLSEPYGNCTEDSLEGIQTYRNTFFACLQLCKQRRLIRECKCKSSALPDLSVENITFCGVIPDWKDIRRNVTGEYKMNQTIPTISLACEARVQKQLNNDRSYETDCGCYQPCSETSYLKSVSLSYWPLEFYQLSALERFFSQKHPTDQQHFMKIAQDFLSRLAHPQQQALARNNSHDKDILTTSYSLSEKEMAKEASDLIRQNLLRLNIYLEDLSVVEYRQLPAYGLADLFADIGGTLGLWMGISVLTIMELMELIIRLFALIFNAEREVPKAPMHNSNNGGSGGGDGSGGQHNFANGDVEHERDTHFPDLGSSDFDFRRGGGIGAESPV
UniProt A0AAN0NP85, 1-600: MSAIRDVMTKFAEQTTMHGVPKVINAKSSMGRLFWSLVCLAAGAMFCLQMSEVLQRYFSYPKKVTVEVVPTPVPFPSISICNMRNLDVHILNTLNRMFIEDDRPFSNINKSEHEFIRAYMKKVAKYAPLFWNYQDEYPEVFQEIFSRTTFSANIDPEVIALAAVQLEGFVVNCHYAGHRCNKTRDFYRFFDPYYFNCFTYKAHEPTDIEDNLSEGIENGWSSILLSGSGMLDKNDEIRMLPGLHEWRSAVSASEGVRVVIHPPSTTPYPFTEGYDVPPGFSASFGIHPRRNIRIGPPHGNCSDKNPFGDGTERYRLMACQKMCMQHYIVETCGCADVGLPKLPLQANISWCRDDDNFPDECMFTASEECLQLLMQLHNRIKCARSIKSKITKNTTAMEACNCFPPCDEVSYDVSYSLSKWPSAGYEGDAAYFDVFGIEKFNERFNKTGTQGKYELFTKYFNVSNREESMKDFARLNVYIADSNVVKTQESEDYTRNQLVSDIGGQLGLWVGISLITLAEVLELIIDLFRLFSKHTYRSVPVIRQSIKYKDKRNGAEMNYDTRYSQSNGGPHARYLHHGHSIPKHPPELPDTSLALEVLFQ

Test [3] concerns the target Aplysia kurodai FaNaC (Aplysia kurodai, UniProt Q4H3X6). In words: cell-based. The test is classed as cell-based. Here is the method: as §1, §2, §3
The subject of test [4] is MGIC Platynereis dumerilii. Set-up: method as in PMID 29688813. The following applies: four Platynereis sequences heterologously expressed; cited from earlier work.
In test [5] the test system is Malacoceros FaNaC^ON156826. The experiment in a line: Two-electrode voltage clamp of Xenopus oocytes expressing Malacoceros FaNaC ON156826. The class given is cell-based, Malacoceros fuliginosus. The following applies: WT channel, n = 8, mean ± SEM, read-out: EC50 of FMRFa. Here is the method: as §2, with “The oocytes were clamped at −40 mV for rat ASIC1a experiments and −60 mV for all others with an Oocyte Clamp OC-725C amplifier (Warner Instruments), LIH 8 + 8 digitizer (HEKA Elektronik) at 0.5 or 1 KHz sampling and 100 Hz filtering.” left out, “Devices). […]” for “Devices).”

In test [6] the test system is Helix aspersa FaNaC. Set-up: method as in PMID 15843991, PMID 26867576. The following applies: read-out: FMRFa EC50; cited from earlier work.
Test [7] deals with Capitella FaNaC^52833. In words: Two-electrode voltage clamp of Xenopus oocytes expressing Capitella FaNaC 52833. The test is classed as cell-based, Capitella teleta. Here is the method: as §2, with “The oocytes were clamped at −40 mV for rat ASIC1a experiments and −60 mV for all others with an Oocyte Clamp OC-725C amplifier (Warner Instruments), LIH 8 + 8 digitizer (HEKA Elektronik) at 0.5 or 1 KHz sampling and 100 Hz filtering.” left out, “Devices). […]” for “Devices).”
Background: In two-electrode clamp one electrode senses voltage and the other passes current.

In test [8] the test system is three platyhelminth (Macrostomum lignano) and two phoronid (Phoronis australis) genes. In words: Peptide responses of oocytes injected with platyhelminth and phoronid DEG/ENaC RNAs. The class given is cell-based. The following applies: RNAs injected alone or in combination; n = 4–6. An excerpt:
We also tested three platyhelminth (Macrostomum lignano) and two phoronid (Phoronis australis) genes that appear in a small branch closely related to the FaNaC branch (lower clade in Fig. 1A). We injected oocytes with these RNAs either alone or in combination, in case of obligate heteromerization, but with these oocytes, we observed no response to FMRFa or YMRFa (from Macrostomum propeptide Mlig001796.g3), FVRIa (from Phoronis propeptide DN252244_c0_g1_i1), or […]a or AYGSMPWa (both from Macrostomum propeptide Mlig032062.g1; n = 4–6). […] Whether this reflects the emergence of FaNaCs after the lineage to Annelida + Brachiopoda + Molluska split from the lineage to Platyhelminthes (and were lost in Phoronida) or whether FaNaCs emerged earlier and FMRFa sensitivity was lost in these platyhelminth and phoronid channels would require experiments on more channels.

Test [9] has as its target Malacoceros FaNaC^ON156825 (Malacoceros fuliginosus, UniProt A0AAN0NP85). The experiment in a line: cell-based. The method, then: as §2, with “The oocytes were clamped at −40 mV for rat ASIC1a experiments and −60 mV for all others with an Oocyte Clamp OC-725C amplifier (Warner Instruments), LIH 8 + 8 digitizer (HEKA Elektronik) at 0.5 or 1 KHz sampling and 100 Hz filtering.” left out, “Devices). […]” for “Devices).”

Read-outs that look alike come from different tables or passages of the source.

`CSCC[C@H](NC(=O)[C@@H](N)Cc1ccccc1)C(=O)N[C@@H](CCCNC(=N)N)C(=O)N[C@@H](Cc1ccccc1)C(N)=O` [FMRFa, Phe-Met-Arg-Phe-amide]: the EC50 in [1] (Helisoma FaNaC with 32 aa segment from Helix FaNaC, read-out: FMRFa sensitivity) is 3 µM; in test [1] (read-out: FMRFa EC50) it was 100 µM; in test [3] (FMRFa EC50, S184A mutant), ~30 µM; in test [3] (FMRFa EC50, WT, n = 5), 3.4 ± 0.4 µM; in test [5], 11 ± 3 µM; in test [6], 3 µM. Also, the EC50 in test [7] (WT channel, Xenopus oocytes, n = 7, mean ± SEM, read-out: EC50 of FMRFa) came out at 0.35 ± 0.15 µM; in test [9], 0.23 ± 0.06 µM. For the same compound, the “current activated by FMRFa” value in [2] (I281T, G316T, R324N, S447V and R529Q mutants, 100 μM FMRFa) was “negligible, if any, current”; in test [3] (F231G mutant, 100 μM FMRFa), “small currents”. Besides, the “activation by FMRFa” value in [2] (seven mutants (S184A, R324N, G270D/Y272L, I281T/S284D, S314F/G316T, S447V/W449F, R529Q/L530V/N531S), 3 or 30 μM FMRFa) is reported as “not significantly activated”. Moreover, the “effect of mutation on FMRFa potency” value in [3] (R288Q mutant) was “abolished FMRFa potency”. Moreover, the “I3 μM/I30 μM ratio of FMRFa potency” value in test [3] (WT, 3 μM FMRFa-gated current amplitude/30 μM FMRFa-gated current amplitude, n = 14) worked out at 0.64 ± 0.04. Besides, the “response to FMRFa” value in [4] was “did not respond”. In addition, the FMRFa-gated currents result in test [7] (R278Q and G306T mutations) is recorded as “abolished”. For the same compound, in [8], the “current response to peptide” value is given as “no response”.

The record behind these values is paper PMC9234716, “Comparative analysis defines a broader FMRFamide-gated sodium channel family and determinants of neuropeptide sensitivity” (The Journal of Biological Chemistry, 2022).
